Measurements as given in PMC12202309 (International Journal of Neuropsychopharmacology, 2025).

Columns and labels:
[1] = mouse, in vivo
[2] = 0.5 mg/kg IV DMO
Experimental: After a 1-week acclimation period, the mice were randomly assigned to 2 experimental groups of 36 animals each: (1) an LPS group was given a single 4 mg/kg intraperitoneal (IP) injection of lipopolysaccharide (LPS), serotype O55:B05 (Sigma) and (2) a control group received a vehicle (sterile phosphate-buffered saline). […] The volume load for mice weighing 25 g was 125 µL. […] The doses of DMSO and MC were 276 and 25 mg/kg. […] Sampling was performed at 2 intervals in each of the 18 mice injected with LPS and 18 controls. The first blood volume of 150 µL was taken into an EDTA-microvette CB 300 (Sardstedt) from a drop of blood after a small incision at the end of the tail. At the termination interval, the second blood sample was collected by cardiac puncture in terminal anesthesia, and then the animal was put to death by decapitation. […] The injected volume was 1 mL/kg, that is, 25 µL for a 25 g mouse. […] The injected volume was 2.5 mL/kg, that is, 75 µL for a 25 g mouse. […]
The calculation of the point estimate and the 95% bootstrap t-confidence interval for AUCt was performed with the help of the R-package PK (https://cran.r-project.org/web/packages/PK/index.html). Total brain-to-plasma drug partition coefficient (Kp,brain) and unbound brain-to-unbound plasma partition coefficient (Kp,uu, brain) were calculated using Equations 3 and 4: […]
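Throughout, for ka: pharmacokinetic model fitted to concentration-time data, with between-animal variability described exponentially, residual error proportional, and effect of LPS injection assessed on clearance and distribution volumes.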
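Throughout, for βV1 LPS: pharmacokinetic model fitted to concentration-time data, with between-animal variability described exponentially, residual error proportional, and effect of LPS injection assessed on clearance and distribution volumes.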
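Throughout, for βV2 LPS: pharmacokinetic model fitted to concentration-time data, with between-animal variability described exponentially, residual error proportional, and effect of LPS injection assessed on clearance and distribution volumes.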
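Throughout, for ωka, percent interindividual variability: pharmacokinetic model fitted to concentration-time data, with between-animal variability described exponentially, residual error proportional, and effect of LPS injection assessed on clearance and distribution volumes.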

## Cc1cc2c(s1)Nc1ccccc1N=C2N1CCN(C)CC1 [olanzapine]
[1]; C57BL/6N
  ka: 2.9 (48%) hour^−1
  ωka, percent interindividual variability: 145 (30%)
[1]
  βV1_LPS: ns
  βV2_LPS: ns
[2]
  detection in the plasma after IV administration of DMO: undetectable
